Results as given in patent US9937115B2, “Oral care compositions with improved flavor” (priority 2010, dated 2018).
Like-named read-outs stand apart in the source and are kept apart here.

By UniProt entry, the sequences of proteins in these tests, tags left out.
UniProt O75762, whole entry: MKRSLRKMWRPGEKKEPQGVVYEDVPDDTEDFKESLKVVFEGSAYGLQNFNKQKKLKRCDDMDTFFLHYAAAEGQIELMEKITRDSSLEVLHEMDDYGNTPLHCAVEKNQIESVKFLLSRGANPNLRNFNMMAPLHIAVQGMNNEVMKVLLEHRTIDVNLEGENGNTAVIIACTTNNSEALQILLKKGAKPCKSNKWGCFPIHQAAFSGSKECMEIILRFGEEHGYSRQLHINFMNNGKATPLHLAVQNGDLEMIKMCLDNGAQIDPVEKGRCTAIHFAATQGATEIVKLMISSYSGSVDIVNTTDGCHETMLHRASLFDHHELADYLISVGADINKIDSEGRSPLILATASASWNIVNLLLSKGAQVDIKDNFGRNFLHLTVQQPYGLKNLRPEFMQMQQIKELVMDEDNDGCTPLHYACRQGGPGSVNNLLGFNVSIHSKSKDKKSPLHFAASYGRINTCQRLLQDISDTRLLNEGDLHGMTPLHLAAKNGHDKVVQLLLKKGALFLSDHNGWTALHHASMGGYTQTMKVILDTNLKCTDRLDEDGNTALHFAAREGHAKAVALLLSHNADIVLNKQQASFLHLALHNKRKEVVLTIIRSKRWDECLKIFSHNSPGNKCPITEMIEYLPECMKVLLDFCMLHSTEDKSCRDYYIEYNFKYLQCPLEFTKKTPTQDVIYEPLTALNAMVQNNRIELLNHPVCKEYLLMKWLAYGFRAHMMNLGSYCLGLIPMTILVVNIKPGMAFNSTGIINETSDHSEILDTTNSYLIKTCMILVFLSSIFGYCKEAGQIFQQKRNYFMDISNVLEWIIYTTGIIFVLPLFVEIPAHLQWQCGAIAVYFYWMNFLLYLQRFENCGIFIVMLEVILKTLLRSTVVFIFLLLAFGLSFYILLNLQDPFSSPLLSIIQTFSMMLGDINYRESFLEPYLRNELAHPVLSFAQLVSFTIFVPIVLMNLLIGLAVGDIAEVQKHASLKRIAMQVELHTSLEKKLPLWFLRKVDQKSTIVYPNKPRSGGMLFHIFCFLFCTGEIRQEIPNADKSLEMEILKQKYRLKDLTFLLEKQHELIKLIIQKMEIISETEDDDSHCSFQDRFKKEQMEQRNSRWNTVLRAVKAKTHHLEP

Target: T1, TRPA1 receptor (Homo sapiens, UniProt O75762)
T1 construct: expressed in transfected cells; host or cells: HEK cell line
Assay: cell-based
Parameters: activation: dose or concentration left out as unconfirmed
Description: The term “TRPA1 activator” as used herein refers to any component which at a concentration of 1 mM gives a calcium flux count of at least 1000 counts above the background level of calcium present in the cell according to the FLIPR method as discussed herein. The term “count” is defined as the change in fluorescence of the transfected cell lines due to the influx of calcium across the cell membrane, which reacts with the calcium sensitive dye present within the cells.
In order to select TRPA1 agonists that would be preferred for reducing off-tasting chemical components found in oral care compositions, calcium flux receptor activity on the TRPA1 was utilized as the criteria for selection of actives. With allyl isothiocyanate as the TRPA1 positive control, molecules that directly activated the TRPA1 receptor were screened in dimethylsulfoxide (DMSO). Pure molecules of each material were dissolved in DMSO at a concentration of 100 micormolar and then added to an HEK cell line containing the TRPA1 receptor. If they are TRPA1 agonists, they will cause a calcium flux in the cell which fluoresces and may then be measured using a FLIPR machine.

[1] = HEK293, read-out: TRPA1 Direct addition
[2] = HEK293, read-out: TRPA1 Pre-incubation
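Wherever TRPA1 Pre-incubation is given: values above 100 mean more active than the control.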

Row | Compound | TRPA1 Direct addition | TRPA1 Pre-incubation | activation [1] | activation [2]
1 | Zinc Phosphate | 23.15% | 54.62% |  | 
2 | CCCCCC(C=O)=Cc1ccccc1 [Alpha-Amylcinnamaldehyde] |  |  | -2.55% | 38.1%
3 | O=C(O)C=Cc1ccccc1 [Cinnamic Acid] |  |  | -1.66% | 63.1%
4 | CC(=O)CCC=C(C)C [6-Methyl-5-Hepten-2-one] |  |  | 0.49% | -1.44%
